Results from PubChem BioAssay AID1141 (ChemBank, 2008).
The list shows a part of the results, in another mix than the full data. Calls of active or inactive are those of the source.

The chains behind the UniProt entries cited, without tags or fusion partners.
UniProt P08659, whole entry, looked up: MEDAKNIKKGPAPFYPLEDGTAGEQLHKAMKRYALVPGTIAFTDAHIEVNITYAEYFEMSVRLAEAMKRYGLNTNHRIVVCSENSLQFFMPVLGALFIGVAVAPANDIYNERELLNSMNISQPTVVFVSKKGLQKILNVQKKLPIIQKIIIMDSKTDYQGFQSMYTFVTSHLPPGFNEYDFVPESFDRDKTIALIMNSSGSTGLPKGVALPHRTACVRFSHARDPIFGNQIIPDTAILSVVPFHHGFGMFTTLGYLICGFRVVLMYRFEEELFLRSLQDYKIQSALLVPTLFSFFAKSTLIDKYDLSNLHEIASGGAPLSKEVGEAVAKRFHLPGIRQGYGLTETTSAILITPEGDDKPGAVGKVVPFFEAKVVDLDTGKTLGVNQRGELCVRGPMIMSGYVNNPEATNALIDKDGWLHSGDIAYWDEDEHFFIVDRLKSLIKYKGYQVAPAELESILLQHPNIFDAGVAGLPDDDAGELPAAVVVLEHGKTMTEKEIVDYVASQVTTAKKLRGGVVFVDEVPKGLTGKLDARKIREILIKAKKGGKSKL

Molecular target: Luciferin 4-monooxygenase (Photinus pyralis) (UniProt P08659)
Assay: firefly luciferase enzyme inhibitors, primary screen, biochemical, luminescence, purified enzyme, 2006 set (AID 1141);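 also: cell-free assay with purified firefly luciferase at 100 ng per well in PBS; test concentration not given here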
Details: SteadyGlo luminescence, 30 min, higher = more signal, called active from +8 up or from −8 down

Compound	z-score
COP(=O)(/N=C1/CC(c2ccc(CO)cc2)=CC(C2CC2)N1Cc1cc2c(cc1Br)OCO2)OC (stereo not given)	inactive: -2.27
O=P(/N=C1/CC(CCCO)=CC(C2CC2)N1Cc1sc2ccccc2c1Cl)(Oc1ccccc1)Oc1ccccc1 (stereo not given)	inactive: -0.951
COP(=O)(/N=C1/CC(CCCO)=CC(c2ccc(CN3CCCC3)cc2)N1Cc1sc2ccccc2c1Cl)OC (stereo not given)	inactive: -2.06
O=P(/N=C1/CC(c2ccc(CO)cc2)=CC(C2CC2)N1Cc1sc2ccccc2c1Cl)(Oc1ccccc1)Oc1ccccc1 (stereo not given)	inactive: -0.416
CN1/C(=N\P(=O)(Oc2ccccc2)Oc2ccccc2)CC(CCCO)=CC1C1CC1 (stereo not given)	inactive: -0.651
O=P(/N=C1/CC(CCCO)=CC(c2ccc(CN3CCCC3)cc2)N1Cc1sc2ccccc2c1Cl)(Oc1ccccc1)Oc1ccccc1 (stereo not given)	inactive: 0.48
COP(=O)(/N=C1/CC(CCCO)=CC(c2cccs2)N1C)OC (stereo not given)	inactive: -1.9
COP(=O)(/N=C1/CC(CCCO)=CC(C2CC2)N1C)OC (stereo not given)	inactive: -1.43
COP(=O)(/N=C1/CC(CCCO)=CC(c2ccc(CN3CCCC3)cc2)N1C)OC (stereo not given)	inactive: -1.58
COP(=O)(/N=C1/CC(CCCO)=CC(C)N1Cc1cccc(OC(F)(F)F)c1)OC (stereo not given)	inactive: -2.06
COP(=O)(/N=C1/CC(CCCO)=CC(C2CC2)N1Cc1sc2ccccc2c1Cl)OC (stereo not given)	inactive: -2.88
COP(=O)(/N=C1/CC(c2ccc(CO)cc2)=CC(C2CC2)N1C)OC (stereo not given)	inactive: -0.445
O=P(/N=C1/CC(c2ccc(CO)cc2)=CC(C2CC2)N1Cc1cc2c(cc1Br)OCO2)(Oc1ccccc1)Oc1ccccc1 (stereo not given)	inactive: -0.0706
O=P(/N=C1/CC(c2ccc(CO)cc2)=CC(c2cccs2)N1Cc1cccc(OC(F)(F)F)c1)(Oc1ccccc1)Oc1ccccc1 (stereo not given)	inactive: -1.38
COP(=O)(/N=C1/CC(c2ccc(CO)cc2)=CC(c2cccs2)N1C)OC (stereo not given)	inactive: -2.06
CN1/C(=N\P(=O)(Oc2ccccc2)Oc2ccccc2)CC(CCCO)=CC1c1ccc(CN2CCCC2)cc1 (stereo not given)	inactive: -0.107
O=P(/N=C1/CC(CCCO)=CC(c2cccs2)N1Cc1cc2c(cc1Br)OCO2)(Oc1ccccc1)Oc1ccccc1 (stereo not given)	inactive: -1.08
COP(=O)(/N=C1/CC(CCCO)=CC(c2ccc(CN3CCCC3)cc2)N1Cc1cccc(OC(F)(F)F)c1)OC (stereo not given)	inactive: -1.31
CN1/C(=N\P(=O)(Oc2ccccc2)Oc2ccccc2)CC(c2ccc(CO)cc2)=CC1c1cccs1 (stereo not given)	inactive: -1.53
COP(=O)(/N=C1/CC(c2ccc(CO)cc2)=CC(C2CC2)N1Cc1sc2ccccc2c1Cl)OC (stereo not given)	inactive: -2.09
COP(=O)(/N=C1/CC(CCCO)=CC(C2CC2)N1Cc1cc2c(cc1Br)OCO2)OC (stereo not given)	inactive: -1.1
CN1/C(=N\P(=O)(Oc2ccccc2)Oc2ccccc2)CC(CCCO)=CC1c1cccs1 (stereo not given)	inactive: 0.0671
COP(=O)(/N=C1/CC(CCCO)=CC(C2CC2)N1Cc1cccc(OC(F)(F)F)c1)OC (stereo not given)	inactive: -1.43
O=P(/N=C1/CC(CCCO)=CC(C2CC2)N1Cc1cc2c(cc1Br)OCO2)(Oc1ccccc1)Oc1ccccc1 (stereo not given)	inactive: 0.352
COP(=O)(/N=C1/CC(CCCO)=CC(c2ccc(CN3CCCC3)cc2)N1Cc1cc2c(cc1Br)OCO2)OC (stereo not given)	inactive: -2.11
O=P(/N=C1/CC(CCCO)=CC(c2ccc(CN3CCCC3)cc2)N1Cc1cc2c(cc1Br)OCO2)(Oc1ccccc1)Oc1ccccc1 (stereo not given)	inactive: 0.594
CC1C=C(CCCO)C/C(=N/P(=O)(Oc2ccccc2)Oc2ccccc2)N1Cc1cccc(OC(F)(F)F)c1 (stereo not given)	inactive: -0.364
O=P(/N=C1/CC(CCCO)=CC(c2cccs2)N1Cc1cccc(OC(F)(F)F)c1)(Oc1ccccc1)Oc1ccccc1 (stereo not given)	inactive: -1.99
CN1/C(=N\P(=O)(Oc2ccccc2)Oc2ccccc2)CC(c2ccc(CO)cc2)=CC1C1CC1 (stereo not given)	inactive: -1.19
O=P(/N=C1/CC(CCCO)=CC(C2CC2)N1Cc1cccc(OC(F)(F)F)c1)(Oc1ccccc1)Oc1ccccc1 (stereo not given)	inactive: 0.185
